Data reported in patent US20240390429A1, “METHOD AND FORMULATION FOR TREATING RESPIRATORY DISEASES” (ENTEROBIOME INC., priority 2019, published 2024).
Converted amounts (≈) assume the structure as drawn.

System: Bacteroides thetiotaomicron ATCC 29741
Assay: MIC by broth microdilution (CLSI), QC strain
Details: ATCC29741

In the case of CCC[C@@H]1C[C@@H](C(=O)N[C@@H]([C@H]2O[C@H](SC)[C@H](O)[C@@H](O)[C@H]2O)[C@H](C)Cl)N(C)C1 [CLI, clindamycin], the MIC is reported as 4 µg/mL (≈ 9.41 µM).
